Results from patent publication US6881824B1, “Peptides suitable for use in antigen specific immunosuppressive therapy” (Akzo Nobel N.V., priority 1996, dated 2005).

Target: T1, DR4 (DRB1*0401) molecules (Homo sapiens, UniProt P01903+P01911, A100K/A169T/F76Y/I96L/K127E/L162R/M171V/N62H/P40V/Q125Y/R42H/S133A/S149N/S66Y/V115G/V209L/W38E)
T1 construct: molecules were purified from the homozygous EBV-transformed human B lymphoblastoid cell lines Huly138IC2 and BM92 using the mAb; endogenous in cells
Assay: Peptide HLA-DR binding assay (semi-quantitative competition binding)
Method: DR4 (DRB1*0401) and DR4 (DRB1*0404) molecules were purified from the homozygous EBV-transformed human B lymphoblastoid cell lines Huly138IC2 and BM92 using the mAb t243, directed against a monomorphic determinant on the DR-complex (Lampson, L. A and R. Levy (1980), J. Immunol. 125:293 299).
The peptide binding studies were performed using a semi-quantitative competition binding assay (Joosten et al 1994, Int. Immunol. 6, 751). […]
After 0.5-1 hr, the filters were washed in PBS, 0.05% Tween 20 (Sigma) and incubated with Strepcavidin-HRPO (Southern Biotechnology) in a 1:10.000 dilution. Biotinylated peptides were detected by enhanced chemiluminescence using a Western Blot ECL kit (Amersham). […] The spots were analysed by scanning the films and using Image Quant/Excel software for analysis. […]

Relative affinity of binding to DR4 (DRB1*0401), in words: high to intermediate relative affinity
SMILES: CC[C@H](C)[C@H](NC(=O)[C@@H](NC(=O)[C@H](Cc1c[nH]cn1)NC(=O)[C@@H](NC(=O)[C@H](CS)NC(=O)[C@H](CC(C)C)NC(=O)[C@H](Cc1ccccc1)NC(=O)[C@H](CCCNC(=N)N)NC(=O)[C@H](CC(=O)O)NC(=O)[C@H](CC(C)C)NC(=O)[C@H](C)NC(=O)[C@H](CC(=O)O)NC(=O)[C@@H]1CCCN1C(=O)[C@H](Cc1ccccc1)NC(=O)[C@H](CS)NC(=O)[C@@H](N)CO)[C@@H](C)O)[C@@H](C)CC)C(=O)O [compound 4, SCFPDALDRFLCTHII]
